Where “and” joins values, the source holds several entries; their conditions need not be identical. Equal entries are not always repeated. The list shows a part of the results, in another mix than the full data. Some tests of the compounds listed are not included; inactive here does not mean inactive elsewhere. Calls of active or inactive are those of the source. No stated cut-off is given here; in the data, active means growth inhibition above about 70%; inactive means the rest.
How the values were obtained:
[1] = NCI Yeast Anticancer Drug Screen. Data for the rad50 strain (AID 155);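 further: 0% = growth of vehicle-only cultures of the same strain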; settings: S. cerevisiae rad50 strain growth inhibition, stronger effect = higher value
[2] = NCI Yeast Anticancer Drug Screen. Data for the mec2-1 strain (AID 157); settings: S. cerevisiae mec2-1 strain, stronger effect = higher value
[3] = NCI Yeast Anticancer Drug Screen. Data for the sgs1 mgt1 strain (AID 161);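 further: 0% = growth of cultures given vehicle only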; settings: S. cerevisiae sgs1 mgt1 strain, stronger effect = higher value
[4] = NCI Yeast Anticancer Drug Screen. Data for the cln2 rad14 strain (AID 165);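 further: 0% = growth equal to vehicle treated cultures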; settings: S. cerevisiae cln2 rad14 strain, stronger effect = higher value
[5] = NCI Yeast Anticancer Drug Screen. Data for the bub3 strain (AID 167); settings: S. cerevisiae bub3 mutant strain, stronger effect = higher value
[6] = NCI Yeast Anticancer Drug Screen. Data for the mlh1 rad18 strain (AID 175); settings: S. cerevisiae mlh1 rad18 strain growth inhibition, stronger effect = higher value
[7] = at 5.0 µM (retest, dose inferred, filed as 0.5)
[8] = at 50.0 µM (retest, dose inferred, filed as 5.0)

Measured: growth inhibition

C#CCN1CCCC(OC(=O)C(O)(c2ccccc2)c2ccccc2)C1 (configuration not stated)
inactive: [1]; at 50.0 µM 36.5% | [2]; at 50.0 µM 0.5% | [3]; at 50.0 µM 15.7% | [4]; at 50.0 µM -23.9% | [5]; at 50.0 µM -0.35% | [6]; at 50.0 µM 22.1%

CN1CCC(OC(=O)C2(O)c3ccccc3Oc3ccccc32)CC1
inactive: [1]; at 50.0 µM -28.4% | [2]; at 50.0 µM -18.9% | [3]; at 50.0 µM -6.6% | [4]; at 50.0 µM -11.4% | [5]; at 50.0 µM -11% | [6]; at 50.0 µM -40.2%

CC#CC(O)(C(=O)OC1CCN(C)CC1)c1ccccn1 (configuration not stated)
inactive: [1]; at 50.0 µM 16.9% | [2]; at 50.0 µM 6.9% | [3]; at 50.0 µM 1.35% | [4]; at 50.0 µM 16.7% | [5]; at 50.0 µM 22.3% | [6]; at 50.0 µM 35.7%

CCN(CCCl)CC1CCCCC1
inactive: [1]; [7] 2% | [1]; [8] 3% | [1]; at 50.0 µM 2.75% and -21.9% | [2]; [7] -4% | [2]; [8] 3% | [2]; at 50.0 µM -14.1% and -8.65% | [3]; [7] -1% | [3]; [8] -5% | [3]; at 50.0 µM 0.15% and -3.5% | [4]; [7] -2% | [4]; [8] 3% | [4]; at 50.0 µM -18.1% and 28.1% | [5]; [7] 4% | [5]; [8] 11% | [5]; at 50.0 µM -13.7% and -9% | [6]; [7] 4% | [6]; [8] 6% | [6]; at 50.0 µM 14.8% and 6.5%

CCN(CCCl)CCCCl
inactive: [1]; at 50.0 µM -8.55% | [2]; at 50.0 µM -21.4% | [3]; at 50.0 µM -8.65% | [4]; at 50.0 µM -27.9% | [5]; at 50.0 µM 5.45% | [6]; at 50.0 µM 17.1%

CC#CC(O)(C(=O)OCC1=CCCN(C)C1)c1ccccc1 (configuration not stated)
inactive: [1]; at 50.0 µM 2.9% | [2]; at 50.0 µM -1.6% | [3]; at 50.0 µM 32.8% | [4]; at 50.0 µM 22.1% | [5]; at 50.0 µM 15.8% | [6]; at 50.0 µM -40.7%

C/C=C\C(O)(C(=O)OC1CCN(C)CC1)C1CCCCC1 (configuration not stated)
inactive: [1]; at 50.0 µM 51.8% | [2]; at 50.0 µM 24.1% | [3]; at 50.0 µM 49.8% | [4]; at 50.0 µM 29.3% | [5]; at 50.0 µM 34.7% | [6]; at 50.0 µM 51.2%

O=C(OC1CCN(Cc2ccccc2)C1)C(O)(c1ccccc1)c1ccccc1 (configuration not stated)
inactive: [1]; at 50.0 µM 4.45% | [2]; at 50.0 µM -14.6% | [3]; at 50.0 µM -20.4% | [4]; at 50.0 µM -8.8% | [5]; at 50.0 µM 8.45% | [6]; at 50.0 µM 5.3%

O=C(OC1CN2CCC1CC2)C(O)(Cc1ccccc1)C1CC1 (configuration not stated)
inactive: [1]; at 50.0 µM 38% | [2]; at 50.0 µM 31.2% | [3]; at 50.0 µM 49% | [4]; at 50.0 µM 32.4% | [5]; at 50.0 µM 41% | [6]; at 50.0 µM 40.5%

CC#CC(O)(C(=O)OC1CCN(C)C1)c1ccccc1 (configuration not stated)
inactive: [1]; at 50.0 µM -10.1% | [2]; at 50.0 µM -27.9% | [3]; at 50.0 µM 9.25% | [4]; at 50.0 µM 5.1% | [5]; at 50.0 µM 7.05% | [6]; at 50.0 µM -50.8%

CC#CC(O)(C(=O)OC1CCN(C)CC1)C1CCCCC1 (configuration not stated)
inactive: [1]; at 50.0 µM 46.5% | [2]; at 50.0 µM 24.8% | [3]; at 50.0 µM 57.4% | [4]; at 50.0 µM 64.2% | [5]; at 50.0 µM 59.9% | [6]; at 50.0 µM 54.7%

CN1C2CCC1CC(OC(=O)C(O)(c1ccccc1)c1ccccc1)C2 (configuration not stated)
inactive: [1]; at 50.0 µM -5.2% | [2]; at 50.0 µM 9.85% | [3]; at 50.0 µM 6.5% | [4]; at 50.0 µM -2.3% | [5]; at 50.0 µM -11.1% | [6]; at 50.0 µM -5.1%

N#CC(C#N)=Cc1ccccc1
inactive: [1]; at 50.0 µM 7.1% | [2]; at 50.0 µM -11.4% | [3]; at 50.0 µM 11.4% | [4]; at 50.0 µM -16.6% | [5]; at 50.0 µM 6.9% | [6]; at 50.0 µM 10.1%

CCC#CC(O)(C(=O)OC1C2CCN(CC2)C1C)c1ccccc1 (configuration not stated)
inactive: [1]; at 50.0 µM 29.4% | [2]; at 50.0 µM 52.9% | [3]; at 50.0 µM -11.1% | [4]; at 50.0 µM 3.95% | [5]; at 50.0 µM -6.5% | [6]; at 50.0 µM -31.1%

C=C(C)C#CC(O)(C(=O)OC1CCN(C)CC1)c1ccccc1 (configuration not stated)
inactive: [1]; at 50.0 µM -14.9% | [2]; at 50.0 µM -1.75% | [3]; at 50.0 µM -15.6% | [4]; at 50.0 µM -7.85% | [5]; at 50.0 µM -4.6% | [6]; at 50.0 µM -1.65%

CCCCCN(CCCl)CCCl
inactive: [1]; at 50.0 µM -11.4% | [2]; at 50.0 µM 3.7% | [3]; at 50.0 µM -5.95% | [4]; at 50.0 µM -37.4% | [5]; at 50.0 µM 1.4% | [6]; at 50.0 µM 30.2%

CN1CCC=C(COC(=O)C(O)(c2ccccc2)C2CCCC2)C1 (configuration not stated)
inactive: [1]; at 50.0 µM -7.05% | [2]; at 50.0 µM -15.9% | [3]; at 50.0 µM -17.4% | [4]; at 50.0 µM 4.3% | [5]; at 50.0 µM 16.9% | [6]; at 50.0 µM 1%

C=C(C)C#CC(O)(C(=O)OC1CCN(C)CC1)c1cccs1 (configuration not stated)
inactive: [1]; at 50.0 µM 9.65% | [2]; at 50.0 µM -8.55% | [3]; at 50.0 µM -16.3% | [4]; at 50.0 µM 13.4% | [5]; at 50.0 µM 7.5% | [6]; at 50.0 µM -15.9%

CC(COC(=O)C(O)(c1ccccc1)c1ccccc1)N(C1CCCC1)C1CCCC1 (configuration not stated)
inactive: [1]; at 50.0 µM -8.3% | [2]; at 50.0 µM -0.4% | [3]; at 50.0 µM -19.6% | [4]; at 50.0 µM -31.7% | [5]; at 50.0 µM 3.5% | [6]; at 50.0 µM -9.65%

CC(C)C(O)(C(=O)OC1CCNCC1)c1ccccc1 (configuration not stated)
inactive: [1]; at 50.0 µM -7.6% | [2]; at 50.0 µM 0.65% | [3]; at 50.0 µM -2.05% | [4]; at 50.0 µM -1% | [5]; at 50.0 µM 9.25% | [6]; at 50.0 µM 1.4%

Reference: PubChem BioAssay (NCI)
